# Values quoted from earlier work, collected in patent publication US20120178782A1, “COMPOSITIONS AND METHODS FOR TREATING PROLIFERATIVE DISEASES” (priority 2009, published 2012).
# Target: T1, lypoxygenase-5 (Rattus norvegicus, UniProt P12527)
# T1 construct: in polymorphonuclear leukocytes of rat; endogenous in cells; host or cells: rat polymorphonuclear leukocytes
# T1 sequence (P12527 1-673): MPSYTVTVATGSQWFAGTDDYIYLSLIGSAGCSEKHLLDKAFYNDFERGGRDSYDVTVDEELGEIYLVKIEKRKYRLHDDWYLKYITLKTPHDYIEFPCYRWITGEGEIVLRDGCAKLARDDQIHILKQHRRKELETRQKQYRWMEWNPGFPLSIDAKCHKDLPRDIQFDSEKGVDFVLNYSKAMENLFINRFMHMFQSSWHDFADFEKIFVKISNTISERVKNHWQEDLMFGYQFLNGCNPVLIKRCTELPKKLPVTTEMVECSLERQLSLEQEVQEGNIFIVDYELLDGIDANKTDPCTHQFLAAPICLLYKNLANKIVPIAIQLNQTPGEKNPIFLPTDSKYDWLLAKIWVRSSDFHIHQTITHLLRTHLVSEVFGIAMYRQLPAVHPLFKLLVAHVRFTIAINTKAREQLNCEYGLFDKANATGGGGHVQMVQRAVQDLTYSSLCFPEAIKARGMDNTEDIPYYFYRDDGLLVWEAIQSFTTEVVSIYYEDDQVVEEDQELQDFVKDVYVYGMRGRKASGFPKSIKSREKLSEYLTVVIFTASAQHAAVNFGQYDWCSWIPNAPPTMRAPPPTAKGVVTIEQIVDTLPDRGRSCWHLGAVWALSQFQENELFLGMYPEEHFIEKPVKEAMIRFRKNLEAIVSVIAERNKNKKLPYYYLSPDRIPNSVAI
# Details: polymorphonuclear leukocytes of rat; cited from earlier work
structure (smiles),measurement,value
CC(c1cc2ccccc2s1)N(O)C(N)=O (stereo not shown) [Zileuton],IC50,300 nM
